For one experiment, the target named is CDK2 CycE1 kinase (Homo sapiens (Human), UniProt P24941). Kind of experiment: Determination of inhibitory activity against CDK2 CycE1 kinase. The class given is biochemical. As to conditions: read-out: CDK2/CycE1 10 μM ATP (kinase) IC50.
The next experiment concerns the target CDK2/CycA2 kinase (Homo sapiens (Human), UniProt P24941). Kind of experiment: Determination of inhibitory activity against CDK2/CycA2 kinase. The following applies: read-out: CDK2/CycA2 10 μM ATP (kinase) IC50. The class given is biochemical.

Regarding `CC(C)NC(=O)O[C@@H]1CC[C@H](c2cc(Nc3ccc4c(c3)CS(=O)(=O)C4)n[nH]2)C1`, the IC50 at CDK2 CycE1 kinase and on CDK2/CycA2 kinase was < 10 nM throughout.
As to `CC(C)NC(=O)O[C@H]1CC[C@@H](c2cc(Nc3ccc4c(c3)CS(=O)(=O)C4)n[nH]2)C1`, the IC50 on CDK2 CycE1 kinase and at CDK2/CycA2 kinase was < 10 nM throughout.

Source of the values: patent US20250084067A1, “PYRAZOLE-SUBSTITUTED CYCLOPENTANOL ESTER DERIVATIVE AND USE THEREOF” (CHIA TAI TIANQING PHARMACEUTICAL GROUP CO., LTD., priority 2022, published 2025).
